Laboratory results taken from patent US5889151A (priority 1989, dated 1999).

Tests used:
[1] = system: mouse parental BTG cells; type: cell-based
[2] = system: human Wish cells; type: cell-based
[3] = system: transfected 10B H7 clone; type: cell-based, mouse

B1: Human beta IFN: human beta interferon preparation (protein, UniProt P01574 22-187, looked up)
Interferon beta: MSYNLLGFLQRSSNFQCQKLLWQLNGRLEYCLKDRMNFDIPEEIKQLQQFQKEDAALTIYEMLQNIFAIFRQDSSSTGWNETIVENLLANVYHQINHLKTVLEEKLEKEDFTRGKLMSSLHLKRYYGRILHYLKAKEYSHCAWTIVRVEILRNFYFINRLTGYLRN
Which “Antiviral activities of interferon preparations tested on BTG” value [1] does the source give for B1 here?
Its value is 200 units/ml.

And the “Antiviral activities of interferon preparations tested on WISH” value [2]?
The value was 2,7 × 10^6 units/ml.

And the “Antiviral activities of interferon preparations tested on 10BH7” value [3]?
The value was 1,6 × 10^3 units/ml.

What about the “RATIO 10BH7/BTG” value [3] of the same molecule?
The value was 8.
